Experimental data: patent US8394442B2, “Process for the preparation of a flavoring concentrate, and a flavoring concentrate” (SYMRISE AG, priority 2007, dated 2013)

Assay: log Pow: distribution coefficient between 1-octanol and water
Details: 1-octanol/water

For `CCCCCCOC(C)=O` [Hexylacetate], the “log Pow” value was 2.83.
